For 1 compound, IC50 results are on record in patent publication US7126027B2, “N-[(1-dimethylaminocycloalkyl)methyl]benzamide derivatives” (Akzo Nobel N.V., priority 2002, dated 2006).

Chains of the proteins cited; added tags and fusions are not shown.
UniProt Q9Y345, whole entry: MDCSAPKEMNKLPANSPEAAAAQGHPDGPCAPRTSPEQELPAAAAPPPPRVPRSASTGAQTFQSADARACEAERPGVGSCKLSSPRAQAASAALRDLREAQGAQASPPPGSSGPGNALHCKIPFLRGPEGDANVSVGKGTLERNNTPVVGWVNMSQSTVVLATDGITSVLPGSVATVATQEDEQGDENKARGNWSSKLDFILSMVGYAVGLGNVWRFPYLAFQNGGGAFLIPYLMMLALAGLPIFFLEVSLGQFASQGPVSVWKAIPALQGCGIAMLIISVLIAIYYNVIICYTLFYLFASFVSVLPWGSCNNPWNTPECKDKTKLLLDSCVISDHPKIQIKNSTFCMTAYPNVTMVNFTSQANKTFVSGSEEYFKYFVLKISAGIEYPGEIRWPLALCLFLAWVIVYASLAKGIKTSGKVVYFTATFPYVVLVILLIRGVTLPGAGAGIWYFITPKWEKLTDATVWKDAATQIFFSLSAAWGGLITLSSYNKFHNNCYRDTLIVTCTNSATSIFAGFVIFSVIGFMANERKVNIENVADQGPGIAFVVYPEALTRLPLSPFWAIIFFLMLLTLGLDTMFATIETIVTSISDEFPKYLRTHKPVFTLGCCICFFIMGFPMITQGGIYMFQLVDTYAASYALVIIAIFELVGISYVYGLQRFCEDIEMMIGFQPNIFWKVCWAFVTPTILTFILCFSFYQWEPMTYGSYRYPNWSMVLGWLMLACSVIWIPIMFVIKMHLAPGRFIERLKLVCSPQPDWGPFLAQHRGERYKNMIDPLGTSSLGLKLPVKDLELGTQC

Only a part of the results on these compounds is given; other tests are left out. Where only a bound is given, the exact number is not on record here.

In the experiment the target is hGlyT-2 (Homo sapiens, UniProt Q9Y345). Kind of experiment: Glycine uptake assay, CHO cells stably transfected with hGlyT-2. The conditions noted are these: read-out: Inhibition of glycine transport by hGlyT-2 IC50, [3H]-glycine 30 μM, 37° C., 10 minutes. On the procedure: Glycine uptake assays were performed as described by Morrow et al. (FEBS Lett. 1998, 439, 334–340) using CHO cells stably transfected with either hGlyT-1b or hGlyT-2. Cells were grown in 96 well microtitre plates (30,000 cells/well) for 24–48 hours before removal of culture medium and addition of Hanks Balanced Salt Solution (HBSS) containing [^3H]-glycine (30 μM) and varying concentrations of test compounds. Plates were incubated at 37° C. for 10 minutes and uptake terminated by washing three times with ice-cold HBSS. After removal of excess liquid, scintillation cocktail was added to each well, prior to counting in a plate counter. Data were analysed using the GraphPad Prism™ analysis package and the sigmoid dose-response curve fitting option to produce IC50 (the concentration of test compound producing 50% inhibition of uptake) values.

In the case of `COc1cc(C(=O)NCC2(N(C)C)CCCCC2)cc(OC)c1OC`, the IC50 – broadly, the concentration needed to halve the response being measured – is more than 10 µM.
